Laboratory results as given in patent US9545409B2, “Use of 1-adamantylethyloxy-3-morpholino-2-propanol or pharmaceutically acceptable salts thereof in pharmaceutical compositions as a neuroretinal protector” (priority 2012, dated 2017).

System: ischemia-reperfusion eye model
Details: rats, parenteral, within 96 hours of ischemia, doses of 3; 5; 10; 20 and 100 mg/kg

OC(COCCC12CC3CC(CC(C3)C1)C2)CN1CCOCC1 (stereo not shown) [1-adamantylethyloxy-3-morpholino-2-propanol]
disturbed indicators of acid-alkali balance, oxidative stress and energy metabolism in ischemic brain: promoted the normalization
